Values quoted from earlier work, collected in patent publication US20090306944A1, “DEVICE AND METHOD FOR CALCULATING AND SUPPLYING A DRUG DOSE” (BAYER TECHNOLOGY SERVICES GMBH, priority 2006, published 2009).

Details: proportion of overall clearance, reference value in an adult

Gentamicin
Excretion process: Renal: Renal (100%)
